Columns and labels:
mammalian AChE = mammalian AChE (Bos taurus, UniProt P23795); assay: Sensitivity of soluble and immobilized mammalian AChE to dichlorophos
immobilized Eq-BChE = immobilized Eq-BChE (Equus caballus, UniProt P81908); assay: Inhibition of immobilized Eq-BChE with DFP and reactivation with TMB4; conditions: compared with HI-6

Amino acid sequences for entries named in this document (tags omitted). A change or cut given only in a name is not applied to a line headed by its entry.
UniProt P23795: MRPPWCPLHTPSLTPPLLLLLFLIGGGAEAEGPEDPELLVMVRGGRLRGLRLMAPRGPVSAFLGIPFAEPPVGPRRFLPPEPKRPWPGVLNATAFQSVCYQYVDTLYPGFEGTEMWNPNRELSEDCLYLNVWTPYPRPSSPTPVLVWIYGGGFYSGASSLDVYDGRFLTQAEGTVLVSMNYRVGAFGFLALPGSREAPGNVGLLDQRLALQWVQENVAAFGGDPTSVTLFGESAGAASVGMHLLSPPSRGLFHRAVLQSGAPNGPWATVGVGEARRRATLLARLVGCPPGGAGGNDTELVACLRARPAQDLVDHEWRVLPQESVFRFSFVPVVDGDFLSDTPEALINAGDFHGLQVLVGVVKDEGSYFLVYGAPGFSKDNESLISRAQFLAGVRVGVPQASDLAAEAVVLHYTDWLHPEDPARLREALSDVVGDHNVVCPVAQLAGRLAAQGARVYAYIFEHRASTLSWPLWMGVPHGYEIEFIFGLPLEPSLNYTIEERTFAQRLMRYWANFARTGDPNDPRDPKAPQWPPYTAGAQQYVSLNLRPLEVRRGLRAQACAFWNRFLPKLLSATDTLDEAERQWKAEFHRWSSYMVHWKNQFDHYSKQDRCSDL
UniProt P81908: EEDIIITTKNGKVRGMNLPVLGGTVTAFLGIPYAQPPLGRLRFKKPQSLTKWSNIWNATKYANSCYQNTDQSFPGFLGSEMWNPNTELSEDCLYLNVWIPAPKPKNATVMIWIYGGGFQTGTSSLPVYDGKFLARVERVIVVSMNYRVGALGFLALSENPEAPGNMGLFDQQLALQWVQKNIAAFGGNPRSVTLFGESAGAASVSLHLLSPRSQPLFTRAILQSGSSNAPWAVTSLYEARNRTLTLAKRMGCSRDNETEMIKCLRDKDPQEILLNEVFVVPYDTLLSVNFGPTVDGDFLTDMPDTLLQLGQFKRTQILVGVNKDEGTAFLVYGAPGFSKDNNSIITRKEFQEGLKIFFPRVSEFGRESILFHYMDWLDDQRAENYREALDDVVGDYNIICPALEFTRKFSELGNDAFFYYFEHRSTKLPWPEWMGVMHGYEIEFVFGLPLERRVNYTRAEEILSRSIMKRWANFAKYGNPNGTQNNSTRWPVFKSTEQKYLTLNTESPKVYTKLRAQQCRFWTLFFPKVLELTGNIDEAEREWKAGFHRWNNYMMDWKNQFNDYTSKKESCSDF

Substance: dichlorophos
- slope for the sponge less than the soluble enzyme (mammalian AChE; 5 minutes exposure): about 20%
- EC50 values, immobilized sensor versus soluble enzyme (mammalian AChE; 5 minutes exposure in 50 mM phosphate buffer): very similar EC50 values

Substance: N,N′-trimethylene bis(pyridinium-4-aldoxime) dibromide
- reactivation of inhibited Eq-BChE (immobilized Eq-BChE): more efficient reactivator of inhibited Eq-BChE than is HI-6

Source: patent US6541230B1, “Detoxification with sponges or foams containing plurality of enzymes and encapsulated indicator” (dated 2003)
